Test results: patent US9993462B2, “Hydantoin derivative-containing pharmaceutical composition” (Chugai Seiyaku Kabushiki Kaisha, priority 2014, dated 2018)

Tested on: rabbit articular chondrocytes
Assay: Suppression of terminal differentiation of rabbit articular chondrocytes (alkaline phosphatase and alizarin red staining)
Format: cell-based
Settings: BMP-2 100 ng/mL, Compound 7 10^−7 to 10^−5 mol/L, PTH(1-34) 10^−10 to 10^−7 mol/L
Protocol: NZW rabbits (4-week old, Oriental Yeast Co., Ltd.) were euthanized, and then the articular cartilage of the lower leg bone was collected, and transferred to a 50-mL test tube (Nippon Becton Dickinson Company). PBS (Nacalai Tesque, Inc.) containing 1% trypsin (Wako Pure Chemical Industries, Ltd.) was added to this, and the soft tissue was digested at 37° C. for one hour. This was followed by centrifugation at 1,200 rpm for five minutes, then supernatant was removed and PBS(−) was added to suspend the cartilage tissue. This was centrifuged at 1,200 rpm for five minutes, followed by removal of the supernatant, and washed three times by suspending in PBS(−). This was centrifuged at 1,200 rpm for five minutes, and then the cell pellet was digested by treatment with DMEM (Life Technologies Japan, Ltd.) containing 0.2% Type II collagenase (CLS-2, Worthington Biochemical Corp.) at 37° C. for three hours. Fetal bovine serum (Life Technologies Japan, Ltd.) was added at 10% v/v to stop the reaction, and this was vigorously pipetted using a 10-mL pipette (Nippon Becton Dickinson Company) to isolate the chondrocytes. […]

For “BMP-2: Factor added at 100 ng/mL to chondrocyte culture; increased alkaline phosphatase activity and promoted calcification”, the “alkaline phosphatase activity (alkaline phosphatase staining)” value (cultured for 14 days) was “increase alkaline phosphatase activity” and the “alizarin red staining property (calcification)” value (cultured for 21 days) was “remarkably increased the alizarin red staining property”.
